Measured affinities in a library of Ab-95 light chain variants

From the AlphaSeq antibody data of Engelhart et al. 2022 (doi:10.1038/s41597-022-01779-4), copy in the FLAb collection.

Target: peptide PDVDLGDISGINAS, taken from heptad repeat 2 (HR2) of SARS-CoV-2 spike.

Each scFv is VH, three GGGGS repeats, VL, as in the parent Ab-95, and differs from it in the CDRs of the light chain only.
VH: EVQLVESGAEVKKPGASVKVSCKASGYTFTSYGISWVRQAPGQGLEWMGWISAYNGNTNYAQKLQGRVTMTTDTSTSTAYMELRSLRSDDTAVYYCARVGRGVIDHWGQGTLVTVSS
VL: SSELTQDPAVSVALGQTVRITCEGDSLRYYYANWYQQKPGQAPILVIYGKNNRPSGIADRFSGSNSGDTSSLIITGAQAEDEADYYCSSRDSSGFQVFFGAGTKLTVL

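In library AAYL52, one, two or three CDR residues were substituted; doubles and triples were drawn at random. The assay is AlphaSeq: two haploid yeast populations carry antibody and antigen on their surface. Pairs that bind mate more often; barcode pairs of the diploids are counted by sequencing. The ratio of observed to expected reads was calibrated, replicate by replicate, on BCL2-family standards whose Kd was known from biolayer interferometry. There are three technical replicates.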

Each variant is given by its three light chain CDRs, as the data file delimits them; those of the parent are EGDSLRYYYAN, GKNNRPS, SSRDSSGFQVF. Affinities are written as log10 Kd with Kd in nM; a lower number is a better binder. Averages over replicates are reported, and they cover detected replicates only. A pair that was not seen in that replicate is written "n.d."; this usually means weak binding, but a binder can also be missed. Parent in this assay: reference entry 2.31, copy in this library 2.25. Three control strains display no target. For library AAYL52, 28% of the pairings with them gave a signal, with a median of 3.91 and one signal in twenty below 2.90, so weak values seen in few replicates may be background. For each scFv, signals with the empty controls are counted beside the result, with their mean in brackets.

CDR-L1,CDR-L2,CDR-L3,"replicates, log10 nM","log10 Kd (nM), mean",signal with controls
EGDSLRYGYAN,GKNIRPS,SSRFSSGFQVF,1.94 / 1.86 / 0.86,1.56,1/9 (2.46)
EEDSLRGYYAN,GKNNRQS,SSRDSSGFQVF,4.74 / 5.38 / n.d.,5.06,2/9 (4.27)
EQDSLRYYYAN,GKNNRPS,SVRDESGFQVF,3.45 / 3.32 / 2.92,3.23,1/9 (3.93)
EGDSLRYQYAN,GKNNRPS,SSRDSLGFIVF,2.89 / 5.25 / 2.67,3.60,0/9
EGDSLRYYPAN,GKNNRPS,QSRDSSGFQIF,4.04 / 3.16 / n.d.,3.60,2/9 (4.07)
EGFSLRYYCAN,GKNNRPS,SSRDSSGFQVD,3.09 / 3.20 / 3.13,3.14,4/9 (4.46)
EGWSLNYYYAN,GKNNRLS,SSRDSSGFQVF,4.22 / n.d. / n.d.,4.22,3/9 (3.57)
HVDALRYYYAN,GKNNRPS,SSRDSSGFQVF,3.85 / 3.14 / 4.90,3.97,1/9 (4.76)
EDDSLRYYYAN,GKNNRPS,SSRDSRGFQVT,3.43 / 3.66 / n.d.,3.55,2/9 (4.25)
EGDSLRYYYAN,GKNTRPL,SSRDSSGFQVQ,2.62 / 2.49 / 2.01,2.37,0/9
RGDSLRYYYSN,GKNNRPS,SSRDSSGFQVK,3.19 / 3.04 / 4.06,3.43,2/9 (3.57)
EGKSLRYYYAN,GKMNRPS,SSRDSSGRQVF,3.61 / 3.15 / 3.58,3.45,3/9 (4.05)
EGDSLRYYYAN,GKNNPPS,SSRKSSGFQVF,4.32 / n.d. / 4.61,4.47,3/9 (3.87)
EEDSLNYYYAN,GKNNDPS,SSRDSSGFQVF,n.d. / 5.35 / n.d.,5.35,1/9 (3.02)
EGDSLRYYSAN,GKNTRPS,SSRDSSGFQDF,3.27 / 3.66 / 2.37,3.10,3/9 (3.64)
EGDSLRYYYCN,GKDNRPS,SSRDSSGFQVF,3.64 / 2.86 / 4.10,3.53,0/9
EGDDLRYYYAN,GKINRPS,SSRDSSGFIVF,n.d. / n.d. / n.d.,n.d.,2/9 (3.78)
EGDSLRYYTAN,GKCNRPS,SSRTSSGFQVF,3.40 / 3.27 / n.d.,3.33,1/9 (3.15)
EGDSLQYYYAN,GKNNRPS,SSRDSSGFQVF,1.87 / 1.85 / 1.70,1.81,4/9 (4.34)
EGDSLRYMYAN,GNNNRPS,SSRDSSGFQVD,3.37 / n.d. / n.d.,3.37,4/9 (3.36)
EGDSLRYYGAN,GKNNRPS,PSRDSSGFQVF,n.d. / n.d. / n.d.,n.d.,1/9 (2.05)
EGDSLRYYYAN,GKNNRPS,SSRKSSGPIVF,3.84 / n.d. / n.d.,3.84,0/9
EGDSLRYYYAM,GKNNRPE,SSRFSSGFQVF,2.43 / 2.15 / 3.05,2.54,4/9 (3.37)
WGDSLRYYYAN,GKNYRPS,SSRKSSGFQVF,4.88 / n.d. / n.d.,4.88,2/9 (4.95)
EGASLRYYYAN,GKLNRPS,SGRDSSGFQVF,3.53 / n.d. / n.d.,3.53,4/9 (3.18)
EGDSLRKYYAN,GKNNRLS,SSRISSGFQVF,4.09 / 3.58 / 3.37,3.68,0/9
EGDSLRYIYAN,GKNNRPS,ASRDSSGFMVF,4.62 / 3.24 / 4.69,4.18,3/9 (4.64)
EGTSLRYRYAN,CKNNRPS,SSRDSSGFQVF,n.d. / n.d. / 4.10,4.10,0/9
EGDSLRYYYAV,GKNNRYS,SSRDSSHFQVF,n.d. / n.d. / n.d.,n.d.,0/9
EGDSLRYYYAN,GKSWRPS,SSRDSSGFQRF,3.69 / 5.58 / 3.95,4.41,0/9
EGDVLRYYYAN,GKNNRPS,SWRDSSGFQVP,3.85 / 3.23 / n.d.,3.54,6/9 (4.46)
EGDSLRYYYMN,GKNNRPS,SSRDSSEFQVA,3.37 / n.d. / n.d.,3.37,1/9 (4.05)
EGDSLRYYYAN,GKNNRPS,SVRDSSGPQVF,2.55 / 2.54 / 2.62,2.57,3/9 (4.19)
AGASLRYYYAN,GKNNRPS,SSRDMSGFQVF,2.16 / 1.72 / 1.46,1.78,2/9 (4.21)
EGMSLRYYYAN,GKNNRPA,SSRESSGFQVF,3.39 / 3.69 / 3.91,3.66,4/9 (3.62)
EGDSLRYYYAN,GKNNCPS,SSEDSSGFQVF,n.d. / n.d. / n.d.,n.d.,1/9 (4.03)
EGDSLRYYYLN,GEMNRPS,SSRDSSGFQVF,4.06 / n.d. / n.d.,4.06,3/9 (3.85)
EGDSSRYYYAN,GKNRRPS,SSRNSSGFQVF,4.37 / 3.39 / 2.89,3.55,3/9 (4.17)
EGDSIRYYYAP,GKNNRPS,SSRDSSGFQVW,3.94 / 4.98 / n.d.,4.46,6/9 (4.22)
EGDNLRYYYAN,GKNNRPS,SSRDMSGFQFF,4.08 / 4.24 / n.d.,4.16,3/9 (3.81)
EGDDLRYYYAN,GKNNRPS,SSRDSRGMQVF,n.d. / n.d. / n.d.,n.d.,0/9
EGDSLRYYYAN,GKNDRES,SSRDSSNFQVF,3.57 / 3.56 / n.d.,3.57,4/9 (4.26)

Top 2 of the variants detected in all replicates, tightest first:

{"CDR-L1": "EGDSLRYGYAN", "CDR-L2": "GKNIRPS", "CDR-L3": "SSRFSSGFQVF", "replicates, log10 nM": "1.94 / 1.86 / 0.86", "log10 Kd (nM), mean": "1.56", "signal with controls": "1/9 (2.46)"}
{"CDR-L1": "AGASLRYYYAN", "CDR-L2": "GKNNRPS", "CDR-L3": "SSRDMSGFQVF", "replicates, log10 nM": "2.16 / 1.72 / 1.46", "log10 Kd (nM), mean": "1.78", "signal with controls": "2/9 (4.21)"}